In ChEMBL document CHEMBL1131091, “Discovery of potent, achiral matrix metalloproteinase inhibitors” (J Med Chem, 1998) one finds IC50 data, which are given here for one molecule.

As usually defined, the IC50 is the concentration that inhibits the measured activity by half.

In the assay the target is T1, Interstitial collagenase (Homo sapiens, UniProt P03956).
T1 sequence (P03956 whole entry): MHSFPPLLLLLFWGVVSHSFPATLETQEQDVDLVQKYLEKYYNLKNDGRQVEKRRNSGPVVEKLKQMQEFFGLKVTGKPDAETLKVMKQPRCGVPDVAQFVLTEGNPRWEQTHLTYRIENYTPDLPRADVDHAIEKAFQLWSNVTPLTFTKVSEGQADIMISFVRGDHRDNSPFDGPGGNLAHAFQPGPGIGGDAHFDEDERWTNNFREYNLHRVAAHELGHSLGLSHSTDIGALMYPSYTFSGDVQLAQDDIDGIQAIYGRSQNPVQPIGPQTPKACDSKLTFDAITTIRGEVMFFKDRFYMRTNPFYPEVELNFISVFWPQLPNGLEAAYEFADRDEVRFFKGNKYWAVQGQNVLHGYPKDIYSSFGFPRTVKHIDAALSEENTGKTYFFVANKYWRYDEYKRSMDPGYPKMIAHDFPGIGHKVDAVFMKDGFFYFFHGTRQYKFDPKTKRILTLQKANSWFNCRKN
The assay can be described thus: Inhibition of Matrix metalloprotease-1.

`COc1ccc(S(=O)(=O)N(Cc2cccnc2)[C@@H](C(=O)NO)C(C)C)cc1` [CGS-27023A] gave an IC50 of 0.0495 µM.
